What follows are compounds tested on submitochondrial particles. Conditions: 25° C., 1-cm cuvette, absorbance 2 min after ATP addition.

| Compound | Toxicant Dose Response for EC50, Test Results |
| --- | --- |
| Cc1cc([N+](=O)[O-])cc([N+](=O)[O-])c1O | 1,260 parts per billion |
| Zinc | 1,600 parts per billion |
| Lead | 280 parts per billion |
